According to article PMC5920688 (Journal of veterinary pharmacology and therapeutics, 2017):

Tests used:
[1] = Synovial fluid t-TUCB concentrations after intravenous administration; format: in vivo; details: horses, i.v., 1 mg/kg; for at least 48 hours
[2] = Plasma pharmacokinetics of t-TUCB after intravenous administration; format: in vivo; details: horses, i.v., 1 mg/kg; for at least 48 hours

Structure (SMILES): O=C(Nc1ccc(OC(F)(F)F)cc1)N[C@H]1CC[C@H](Oc2ccc(C(=O)O)cc2)CC1 [t-TUCB, trans-4-{4-[3-(4-Trifluoromethoxy-phenyl)-ureido]-cyclohexyloxy}-benzoic acid]
- Synovial fluid concentration relative to in vitro IC95 [1]: several fold higher
- Plasma concentration relative to in vitro IC95 [2]: several fold higher
